Measured values as given in patent US20180369355A1 (TEXAS A AND M UNIVERSITY SYSTEM, published 2018).

The chains behind the UniProt entries cited, without tags or fusion partners. Residues count along the entry.
UniProt Q53653, 221-559 limits assumed: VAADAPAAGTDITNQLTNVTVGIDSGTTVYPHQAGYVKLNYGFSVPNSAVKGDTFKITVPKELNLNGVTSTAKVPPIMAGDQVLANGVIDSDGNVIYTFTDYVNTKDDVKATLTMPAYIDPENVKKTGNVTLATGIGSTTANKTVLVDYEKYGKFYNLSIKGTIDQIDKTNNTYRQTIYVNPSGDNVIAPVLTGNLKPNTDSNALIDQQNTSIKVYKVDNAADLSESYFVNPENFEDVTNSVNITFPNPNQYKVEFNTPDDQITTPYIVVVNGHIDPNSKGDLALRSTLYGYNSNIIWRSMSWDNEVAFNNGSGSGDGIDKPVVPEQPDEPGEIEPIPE

Molecular target: ClfA221-559 (S. aureus strain Newman) (UniProt Q53653)
Assay: SPR (Biacore 3000); ClfA221-559 0.05-6.4 nM over captured Tefibazumab

Question: Tefibazumab (antibody) was tested. Which Kd did it give?
Answer: 290 pM
